Test results reported in publication PMC10112521, “High-throughput AR dimerization assay identifies androgen disrupting chemicals and metabolites” (Frontiers in Toxicology, 2023).

By UniProt entry, the sequences of proteins in these tests, tags left out. Where a name states a change or a piece, a line headed by the entry shows the natural chain unless it says otherwise.
UniProt P10275: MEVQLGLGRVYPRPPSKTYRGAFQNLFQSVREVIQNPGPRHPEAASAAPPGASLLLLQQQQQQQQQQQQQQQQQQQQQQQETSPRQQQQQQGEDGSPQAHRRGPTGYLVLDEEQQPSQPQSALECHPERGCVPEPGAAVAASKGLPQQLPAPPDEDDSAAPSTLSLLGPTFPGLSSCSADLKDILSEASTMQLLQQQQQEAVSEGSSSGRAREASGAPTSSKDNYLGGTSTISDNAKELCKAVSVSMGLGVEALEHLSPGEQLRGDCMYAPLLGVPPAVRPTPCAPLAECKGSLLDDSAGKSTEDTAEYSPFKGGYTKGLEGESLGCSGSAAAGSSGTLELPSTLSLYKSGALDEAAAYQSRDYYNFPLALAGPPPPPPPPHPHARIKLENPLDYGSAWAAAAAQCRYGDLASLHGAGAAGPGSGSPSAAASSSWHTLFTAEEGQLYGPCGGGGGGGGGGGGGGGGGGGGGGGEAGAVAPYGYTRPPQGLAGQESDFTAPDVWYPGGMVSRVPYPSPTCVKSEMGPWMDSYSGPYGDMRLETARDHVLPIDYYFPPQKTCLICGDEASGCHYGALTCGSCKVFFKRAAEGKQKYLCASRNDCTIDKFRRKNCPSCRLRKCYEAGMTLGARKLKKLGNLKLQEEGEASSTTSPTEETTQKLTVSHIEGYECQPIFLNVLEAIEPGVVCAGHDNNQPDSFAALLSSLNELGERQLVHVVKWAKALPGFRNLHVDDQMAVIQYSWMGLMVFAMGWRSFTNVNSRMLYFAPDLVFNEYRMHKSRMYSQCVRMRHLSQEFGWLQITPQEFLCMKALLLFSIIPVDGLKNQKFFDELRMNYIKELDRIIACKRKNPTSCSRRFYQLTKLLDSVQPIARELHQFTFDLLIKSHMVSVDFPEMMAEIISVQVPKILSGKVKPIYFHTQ

Biological target: human AR (Homo sapiens, UniProt P10275)
Experiment: AR2 assay, antagonist mode: disruption of R1881 (10 nM)-induced AR homodimerization in HepG2-AR2 cells

CCC(=O)O[C@H]1CC[C@H]2[C@@H]3CCC4=CC(=O)CC[C@]4(C)[C@H]3CC[C@]12C [Testosterone propionate]
activity call in antagonist mode: false positives
